The nature of assay [1]: Selectivity ratio of Ki value of eNOS to nNOS.
The nature of assay [2]: Selectivity ratio of Ki value of iNOS to nNOS.
The target in a further assay is Nitric oxide synthase 1 (Rattus norvegicus, UniProt P29476).

By UniProt entry, the sequences of proteins in these tests, tags left out.
UniProt P29476, whole entry: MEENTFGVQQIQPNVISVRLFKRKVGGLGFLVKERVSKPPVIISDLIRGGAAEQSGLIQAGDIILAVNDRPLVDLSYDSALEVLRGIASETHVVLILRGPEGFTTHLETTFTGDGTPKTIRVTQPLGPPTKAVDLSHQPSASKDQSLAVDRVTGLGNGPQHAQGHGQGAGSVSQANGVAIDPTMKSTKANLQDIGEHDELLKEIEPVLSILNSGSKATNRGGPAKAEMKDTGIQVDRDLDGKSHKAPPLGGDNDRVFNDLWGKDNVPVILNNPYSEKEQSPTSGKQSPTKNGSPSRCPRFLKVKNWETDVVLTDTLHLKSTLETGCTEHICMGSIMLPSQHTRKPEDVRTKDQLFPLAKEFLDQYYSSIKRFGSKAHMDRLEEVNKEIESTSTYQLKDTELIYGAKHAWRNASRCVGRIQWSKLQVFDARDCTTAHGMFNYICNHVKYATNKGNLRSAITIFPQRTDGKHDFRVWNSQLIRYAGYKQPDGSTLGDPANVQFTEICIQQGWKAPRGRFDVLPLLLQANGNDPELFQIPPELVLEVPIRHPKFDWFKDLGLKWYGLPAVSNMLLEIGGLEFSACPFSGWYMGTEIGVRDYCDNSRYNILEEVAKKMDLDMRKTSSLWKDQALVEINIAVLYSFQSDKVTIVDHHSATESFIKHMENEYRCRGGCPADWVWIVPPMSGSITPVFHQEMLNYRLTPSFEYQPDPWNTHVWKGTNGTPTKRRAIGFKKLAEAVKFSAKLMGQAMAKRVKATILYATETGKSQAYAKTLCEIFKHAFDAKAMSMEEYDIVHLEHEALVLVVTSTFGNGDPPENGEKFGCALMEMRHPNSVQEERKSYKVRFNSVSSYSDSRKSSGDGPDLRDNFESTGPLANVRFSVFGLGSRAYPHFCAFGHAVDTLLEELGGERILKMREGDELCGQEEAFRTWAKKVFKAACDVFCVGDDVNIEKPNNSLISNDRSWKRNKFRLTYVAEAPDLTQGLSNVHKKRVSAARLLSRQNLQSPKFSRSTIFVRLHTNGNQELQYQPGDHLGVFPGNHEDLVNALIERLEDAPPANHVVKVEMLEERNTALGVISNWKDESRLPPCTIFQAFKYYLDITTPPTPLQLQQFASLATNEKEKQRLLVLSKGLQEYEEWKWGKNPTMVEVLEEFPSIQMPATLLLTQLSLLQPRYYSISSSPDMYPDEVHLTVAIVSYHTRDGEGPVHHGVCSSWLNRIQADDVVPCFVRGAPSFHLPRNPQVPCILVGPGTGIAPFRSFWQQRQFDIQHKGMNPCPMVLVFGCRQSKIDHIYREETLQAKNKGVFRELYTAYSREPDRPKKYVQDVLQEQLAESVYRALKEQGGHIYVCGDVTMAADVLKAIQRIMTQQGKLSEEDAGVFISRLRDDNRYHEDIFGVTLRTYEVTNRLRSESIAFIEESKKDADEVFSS

On to `NCCc1cccc(NC[C@@H](N)CCC/N=C(\N)N[N+](=O)[O-])c1`, for which the Selectivity was determined as 45.2 in assay [1] and 118 in assay [2].

As to `N/C(=N\CCC[C@H](N)CNCc1ccc(N)cc1)N[N+](=O)[O-]`, the figures for the Selectivity in assay [1] and in assay [2] were 189 and 204, respectively.

A word on the Ki: it is the equilibrium dissociation constant of an inhibitor or competing ligand from its target. A higher Ki goes with lower affinity. As for `N=C(NCCC[C@H](N)CNCCc1ccccn1)N[N+](=O)[O-]`, on Nitric oxide synthase 1, the Ki was 2210 nM.

`N/C(=N\CCC[C@H](N)CNCc1ccccc1N)N[N+](=O)[O-]`: the Selectivity in assay [1] was determined as 4.24; in assay [2], 4.25.

`N=C(NCCC[C@H](N)CNCCc1ccncc1)N[N+](=O)[O-]` had a Ki at Nitric oxide synthase 1 of 760 nM.

(Values after ChEMBL document CHEMBL1136776, “Aromatic reduced amide bond peptidomimetics as selective inhibitors of neuronal nitric oxide synthase” (J Med Chem, 2003).)
